Binding of CDR-mutated scFvs to a peptide of the spike HR2 region

The measurements come from Engelhart et al. 2022 (doi:10.1038/s41597-022-01779-4) through the FLAb antibody collection.

The target is the same throughout: PDVDLGDISGINAS, from the HR2 region of SARS-CoV-2 spike.

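Phage display of a naive human antibody library on the peptide gave the parent. The library (AAYL52) carries one to three amino acid substitutions per variant, with no insertions or deletions. The assay is AlphaSeq: two haploid yeast populations carry antibody and antigen on their surface. Mating (16 h, 30 °C) was followed by selection of diploids and sequencing of their barcodes. Read counts were normalised to the haploid input and turned into Kd by a linear fit to BCL2-family pairs of known affinity, for each replicate. Each pool was mated in three replicate cultures.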

Each scFv is VH, three GGGGS repeats, VL, as in the parent Ab-95, and differs from it in the CDRs of the light chain only.
VH: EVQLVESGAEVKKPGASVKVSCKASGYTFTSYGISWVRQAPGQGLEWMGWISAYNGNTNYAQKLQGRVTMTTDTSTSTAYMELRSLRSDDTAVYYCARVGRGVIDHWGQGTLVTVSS
VL: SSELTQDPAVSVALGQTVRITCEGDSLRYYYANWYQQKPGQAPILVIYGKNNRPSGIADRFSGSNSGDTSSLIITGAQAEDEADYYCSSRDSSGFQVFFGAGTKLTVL

The parent's light chain CDRs are EGDSLRYYYAN, GKNNRPS, SSRDSSGFQVF; each variant's own CDRs replace them letter for letter. Numbers give log10(Kd / nM), so 0 is 1 nM and 3 is 1 µM. Smaller is tighter. A mean of the replicates is given; it leaves out those without a signal. "nd" means that the variant was in the library but no mating with the target was seen in any replicate; the authors take this as a sign of poor binding, and no number exists.

CDR-L1 | CDR-L2 | CDR-L3 | mean log10 Kd (nM) | replicates with signal | control signals
EGDSLRYYAAN | GKNNRPS | SSRDWSGFQDF | 1.57 | 3 of 3 | 1 of 9
EGDRLRYYYAN | GKNNDPS | QSRDSSGFQVF | nd | 0 of 3 | 0 of 9
EGDYLRYYYAN | RKDNRPS | SSRDSSGFQVF | 3.72 | 1 of 3 | 1 of 9
EGDSLRYYYAN | GKPHRLS | SSRDSSGFQVF | 4.37 | 2 of 3 | 4 of 9
EGDSLRYYYAN | GKNNRLS | SSRDSSGAGVF | 3.16 | 2 of 3 | 4 of 9
EGDSARYYYAN | GKNNRPS | SSRISSTFQVF | 4.02 | 2 of 3 | 2 of 9
EKDSKRYYYAN | GKNNRPS | SSRDSSGFQVF | 2.88 | 3 of 3 | 1 of 9
EGDSLKYYYAN | GDNNRPS | SSRDSSGFQTF | 2.24 | 3 of 3 | 3 of 9
EGDSLRYYCAN | GGNNRPS | SSRDSSGFQVF | 1.28 | 3 of 3 | 1 of 9
EGDSLRYYYTN | GSNNNPS | SSRDSSGFQVF | nd | 0 of 3 | 2 of 9
CGWSLRYGYAN | GKNNRPS | SSRDSSGFQVF | 1.48 | 3 of 3 | 3 of 9
EGDSLRYYYAN | GKMNRPS | SSRLSWGFQVF | 5.23 | 1 of 3 | 3 of 9
EGDSLRYYYAN | CANNRPS | SSRDYSGFQVF | 3.54 | 1 of 3 | 0 of 9
EGDSLRYYYIN | GKNNRPS | CSRDSSGFPVF | 3.92 | 3 of 3 | 5 of 9
EGDSLRYYYAN | GKNNRPS | QSRLSSGFQMF | 2.70 | 3 of 3 | 1 of 9
EGDSLNYYYAN | GKNNRPS | SSRDSSGFKVP | 3.38 | 3 of 3 | 3 of 9
QGISLRYYYAN | GKNNRPS | SSRDSSGMQVF | 2.67 | 3 of 3 | 4 of 9
CGDSLRYYYQN | GKYNRPS | SSRDSSGFQVF | 3.83 | 2 of 3 | 1 of 9
EGDSLRYYYAN | GKWNNPS | SSRVSSGFQVF | 4.61 | 3 of 3 | 4 of 9
EEDSLRYYYAN | GKNDRPR | SSRDSSGFQVF | nd | 0 of 3 | 1 of 9
EGDSLRYYYAN | GKNNRPS | YSRDSSQFQVF | nd | 0 of 3 | 1 of 9
EGDSLRYYYDN | GKNNRPS | TSRDSSGFQVS | nd | 0 of 3 | 2 of 9
KGDSLRYYYAN | GKNNRPS | YSRDSSGHQVF | 2.16 | 3 of 3 | 0 of 9
EGDSLRYYYAN | PKNNRPS | ESRDSSGRQVF | nd | 0 of 3 | 3 of 9
EGDSLRYYYAN | GKNNLQS | SSRYSSGFQVF | 3.81 | 1 of 3 | 5 of 9
EGDNLRYYYAN | GKNNRPS | SSRASSGFVVF | 4.04 | 1 of 3 | 0 of 9
EGDSLRYYYAW | GKNNRPN | SSRDPSGFQVF | 5.30 | 2 of 3 | 4 of 9
EGDSLSYYDAN | GKNNRPS | SSMDSSGFQVF | 1.37 | 3 of 3 | 1 of 9
EGDSLRYYQAN | GKSNRPS | SSRDSSGFHVF | 1.40 | 3 of 3 | 3 of 9
EHDSLRYYYAN | FKNNRPS | SSRDGSGFQVF | 4.67 | 1 of 3 | 3 of 9
EGDSLCYYYAN | GKNNRPS | SSRDSSGFQWY | 3.78 | 3 of 3 | 2 of 9
EGDSLRYYYAN | GKNNRPF | SSRDVSLFQVF | nd | 0 of 3 | 2 of 9
EGDSLMYYYAN | GKNNTPS | SSRDSTGFQVF | 2.85 | 2 of 3 | 2 of 9
EGDSLRYYYAN | GKNNRLS | SSRVCSGFQVF | 3.58 | 3 of 3 | 2 of 9
EGDSLRYYYAN | GKQNNPS | SSRDSSVFQVF | 4.28 | 2 of 3 | 6 of 9
EGDSLCYYYAN | GKNNRPS | SSRDSSAFQKF | 3.53 | 3 of 3 | 4 of 9
WLDSLRYYYAN | GKNNRIS | SSRDSSGFQVF | nd | 0 of 3 | 2 of 9
HGDSLAYYYNN | GKNNRPS | SSRDSSGFQVF | 2.75 | 3 of 3 | 5 of 9
EGDSLRYYYAK | GVNVRPS | SSRDSSGFQVF | 4.86 | 2 of 3 | 2 of 9
EGDSLRYYYAN | GKRNRPS | FSRDSSGFPVF | 3.84 | 3 of 3 | 3 of 9
EGYSLRRYYAN | GKNNRPS | SSRDASGFQVF | 2.33 | 3 of 3 | 3 of 9
FGDSLSSYYAN | GKNNRPS | SSRDSSGFQVF | 2.77 | 3 of 3 | 3 of 9
EGTSLRYYYAN | GKNNRPS | SSSDSSEFQVF | 4.14 | 3 of 3 | 6 of 9
EGDSKRYYYAN | GKNNRPH | SSRDSVGFQVF | 3.92 | 2 of 3 | 3 of 9
EGDSLRYYYAN | GKNNDPS | SSRDVSGEQVF | nd | 0 of 3 | 2 of 9
EGDHLRYYYCN | GKNNRNS | SSRDSSGFQVF | 4.58 | 2 of 3 | 2 of 9
EGDYLRYYYAW | GKNNRPS | SSRDSSGFQRF | 3.70 | 1 of 3 | 1 of 9
EGDSLRYYYAN | GKNNRPS | SSCASDGFQVF | 3.52 | 3 of 3 | 1 of 9
EGDSLRYYYAK | GKVNRPS | SSRVSSGFQVF | 3.77 | 2 of 3 | 7 of 9
KGDSLRYYYAN | RKNNRPS | SWRDSSGFQVF | nd | 0 of 3 | 1 of 9
EGDSLWYYYLN | GKNNRPS | SSRDSSGFQPF | 3.39 | 2 of 3 | 5 of 9
EGDSLRAYYAN | GKNNRPS | SSRDSSAFQMF | 4.61 | 1 of 3 | 4 of 9
EGDSARYYYAN | GKNNAPS | SSRESSGFQVF | 5.69 | 1 of 3 | 4 of 9
WGDSLRYYYAN | GKNRRPS | SDRDSSGFQVF | 4.17 | 1 of 3 | 2 of 9
EQDSLRYYYCN | GKNNRHS | SSRDSSGFQVF | 4.21 | 2 of 3 | 2 of 9
EGDSLMYYYAN | GKNNIPS | SSRDSSSFQVF | 3.42 | 2 of 3 | 1 of 9
EGDSLTYYYAN | GKNNRNS | SSRDSSAFQVF | 2.33 | 1 of 3 | 1 of 9
EGKSLRYYCAN | GKNNRPS | SSRDSSGFQVF | 2.29 | 3 of 3 | 6 of 9
EGDYLRYYYAN | GKNNRPS | SSQDSSGFIVF | 3.82 | 2 of 3 | 5 of 9

Repeated from above, the 4 best binders with a signal in all replicates:

CDR-L1,CDR-L2,CDR-L3,mean log10 Kd (nM),replicates with signal,control signals
EGDSLRYYCAN,GGNNRPS,SSRDSSGFQVF,1.28,3 of 3,1 of 9
EGDSLSYYDAN,GKNNRPS,SSMDSSGFQVF,1.37,3 of 3,1 of 9
EGDSLRYYQAN,GKSNRPS,SSRDSSGFHVF,1.40,3 of 3,3 of 9
CGWSLRYGYAN,GKNNRPS,SSRDSSGFQVF,1.48,3 of 3,3 of 9

Empty control strains, which show no peptide, gave a signal in 28% of pairings with library AAYL52; the median was 3.91 and 95% of these signals were weaker than 2.90. No background was subtracted. For each scFv, signals with the empty controls are counted beside the result. For reference, the parent read 2.31 as the reference entry and 2.25 as a member of this library.